Results on 15 molecules are retold here after patent publication US20090099157A1, “TETRAHYDRO-PYRAZOLO-PYRIDINE THIOETHER MODULATORS OF CATHEPSIN S” (priority 2007, published 2009).

Chains of the proteins cited; added tags and fusions are not shown. Residues count along the entry.
UniProt P25774, 115-331: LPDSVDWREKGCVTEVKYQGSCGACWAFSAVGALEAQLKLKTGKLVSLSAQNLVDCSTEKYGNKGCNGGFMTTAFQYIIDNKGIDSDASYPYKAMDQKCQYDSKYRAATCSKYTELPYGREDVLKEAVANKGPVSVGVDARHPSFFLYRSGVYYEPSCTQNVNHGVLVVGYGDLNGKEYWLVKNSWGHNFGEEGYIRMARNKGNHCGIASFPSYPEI

For the test, the target named is Recombinant human cathepsin S (CatS) (Homo sapiens, UniProt P25774). Nature of the test: biochemical.

Each structure is given as a SMILES string.

In general, IC50 refers to the concentration needed to halve the response being measured. In the case of `CS(=O)(=O)N1CCc2c(c(-c3ccc(C(F)(F)F)c(SCCNC(=O)Cc4ccc(F)cc4)c3)nn2CC(O)CN2CCC(N3CCCC3=O)CC2)C1` (stereo not drawn) [Example 121, 2-(4-Fluoro-phenyl)-N-{2-[5-(1-{2-hydroxy-3-[4-(2-oxo-pyrrolidin-1-yl)-piperidin-1-yl]-propyl}-5-methanesulfonyl-4,5,6,7-tetrahydro-1H-pyrazolo[4,3-c]pyridin-3-yl)-2-trifluoromethyl-phenylsulfanyl]-ethyl}-acetamide], the IC50 turned out to be 280 nM.

For the molecule `CS(=O)(=O)N1CCc2c(c(-c3ccc(C(F)(F)F)c(SCCN4CCC(F)CC4)c3)nn2CC(O)CN2CCC(N3CC(O)CC3=O)CC2)C1` (stereo not drawn) [Example 823, 1-[1-(3-{3-[3-{[2-(4-Fluoropiperidin-1-yl)ethyl]sulfanyl}-4-(trifluoromethyl)phenyl]-5-(methylsulfonyl)-4,5,6,7-tetrahydro-1H-pyrazolo[4,3-c]pyridin-1-yl}-2-hydroxypropyl)piperidin-4-yl]-4-hydroxypyrrolidin-2-one], the IC50 was determined as 55 nM.

On to `COC(=O)C(=O)N1CCc2c(c(-c3ccc(C(F)(F)F)c(SCCN4CCC(F)CC4)c3)nn2C[C@@H](O)CN2CCCCC2)C1` [Example 436, Methyl {3-[3-{[2-(4-fluoropiperidin-1-yl)ethyl]sulfanyl}-4-(trifluoromethyl)phenyl]-1-[(2S)-2-hydroxy-3-piperidin-1-ylpropyl]-1,4,6,7-tetrahydro-5H-pyrazolo[4,3-c]pyridin-5-yl}(oxo)acetate], for which the IC50 was 75 nM.

As for `CS(=O)(=O)N1CCc2c(c(-c3ccc(C(F)(F)F)c(SCC(=O)Nc4cccc(-c5ccccc5)c4)c3)nn2CC(O)CN2CCC(N3CCCC3=O)CC2)C1` (stereo not drawn) [Example 70, N-Biphenyl-3-yl-2-[5-(1-{2-hydroxy-3-[4-(2-oxo-pyrrolidin-1-yl)-piperidin-1-yl]-propyl}-5-methanesulfonyl-4,5,6,7-tetrahydro-1H-pyrazolo[4,3-c]pyridin-3-yl)-2-trifluoromethyl-phenylsulfanyl]-acetamide], the IC50 is 1850 nM.

On to `O=C(CO)N1CCc2c(c(-c3ccc(C(F)(F)F)c(SCCN4CCC(F)CC4)c3)nn2CC(O)CN2CCCCC2)C1` (stereo not drawn) [Example 283, 1-[3-{3-[2-(4-Fluoro-piperidin-1-yl)-ethylsulfanyl]-4-trifluoromethyl-phenyl}-1-(2-hydroxy-3-piperidin-1-yl-propyl)-1,4,6,7-tetrahydro-pyrazolo[4,3-c]pyridin-5-yl]-2-hydroxy-ethanone], for which the IC50 was determined as 280 nM.

As to `CC1CCN(CCSc2cc(-c3nn(C[C@@H](O)CN4CCC(C(C)(C)O)CC4)c4c3CN(S(C)(=O)=O)CC4)ccc2C(F)(F)F)CC1` [Example 649, (2S)-1-[4-(1-Hydroxy-1-methylethyl)piperidin-1-yl]-3-{3-[3-{[2-(4-methylpiperidin-1-yl)ethyl]sulfanyl}-4-(trifluoromethyl)phenyl]-5-(methylsulfonyl)-4,5,6,7-tetrahydro-1H-pyrazolo[4,3-c]pyridin-1-yl}propan-2-ol], the IC50 came out at 92 nM.

`CS(=O)(=O)N1CCc2c(c(-c3ccc(C(F)(F)F)c(SCCN4CCCC4)c3)nn2CC(O)CN2CCC(N3CCCCC3)CC2)C1` (stereo not drawn) [Example 640, 1-(1,4′-Bipiperidin-1′-yl)-3-[5-(methylsulfonyl)-3-{3-[(2-pyrrolidin-1-ylethyl)sulfanyl]-4-(trifluoromethyl)phenyl}-4,5,6,7-tetrahydro-1H-pyrazolo[4,3-c]pyridin-1-yl]propan-2-ol]: the IC50 turned out to be 630 nM.

On to `CS(=O)(=O)N1CCc2c(c(-c3ccc(C(F)(F)F)c(SCCN4CCCCC4)c3)nn2CCCN2CCC(N3CCCC3)CC2)C1` [Example 55, 5-Methanesulfonyl-3-[3-(2-piperidin-1-yl-ethylsulfanyl)-4-trifluoromethyl-phenyl]-1-[3-(4-pyrrolidin-1-yl-piperidin-1-yl)-propyl]-4,5,6,7-tetrahydro-1H-pyrazolo[4,3-c]pyridine], for which the IC50 amounted to 560 nM.

On to `CS(=O)(=O)N1CCc2c(c(-c3ccc(C(F)(F)F)c(SCCN4CCC[C@H](O)C4)c3)nn2C[C@@H](O)CN2CCOCC2)C1` [Example 287, (3S)-1-(2-{[5-{1-[(2S)-2-Hydroxy-3-morpholin-4-ylpropyl]-5-(methylsulfonyl)-4,5,6,7-tetrahydro-1H-pyrazolo[4,3-c]pyridin-3-yl}-2-(trifluoromethyl)phenyl]sulfanyl}ethyl)piperidin-3-ol], for which the IC50 came out at 1060 nM.

For `CS(=O)(=O)N1CCc2c(c(-c3ccc(C(F)(F)F)c(SCCNC4CCCCC4)c3)nn2CCCN2CCCCC2)C1` [Example 340, N-[2-({5-[5-(Methylsulfonyl)-1-(3-piperidin-1-ylpropyl)-4,5,6,7-tetrahydro-1H-pyrazolo[4,3-c]pyridin-3-yl]-2-(trifluoromethyl)phenyl}sulfanyl)ethyl]cyclohexanamine], the IC50 was found to be 360 nM.

Regarding `O=C(Nc1ccccc1)N1CCc2c(c(-c3ccc(C(F)(F)F)c(SCCN4CCC(F)CC4)c3)nn2C[C@@H](O)CN2CCCCC2)C1` [Example 604, 3-[3-{[2-(4-Fluoropiperidin-1-yl)ethyl]sulfanyl}-4-(trifluoromethyl)phenyl]-1-[(2S)-2-hydroxy-3-piperidin-1-ylpropyl]-N-phenyl-1,4,6,7-tetrahydro-5H-pyrazolo[4,3-c]pyridine-5-carboxamide], the IC50 was 130 nM.

`CS(=O)(=O)N1CCc2c(c(-c3ccc(C(F)(F)F)c(SCCNCCN4CCOCC4)c3)nn2CCCN2CCC(N3CCCC3=O)CC2)C1` [Example 48, 1-{1-[3-(5-Methanesulfonyl-3-{3-[2-(2-morpholin-4-yl-ethylamino)-ethylsulfanyl]-4-trifluoromethyl-phenyl}-4,5,6,7-tetrahydro-pyrazolo[4,3-c]pyridin-1-yl)-propyl]-piperidin-4-yl}-pyrrolidin-2-one]: the IC50 worked out at 960 nM.

On to `CS(=O)(=O)N1CCc2c(c(-c3ccc(C(F)(F)F)c(SCCN4CCC(F)(F)C4)c3)nn2CC(O)CN2CCC(C(N)=O)CC2)C1` (stereo not drawn) [Example 625, 1-(3-{3-[3-{[2-(3,3-Difluoropyrrolidin-1-yl)ethyl]sulfanyl}-4-(trifluoromethyl)phenyl]-5-(methylsulfonyl)-4,5,6,7-tetrahydro-1H-pyrazolo[4,3-c]pyridin-1-yl}-2-hydroxypropyl)piperidine-4-carboxamide], for which the IC50 amounted to 90 nM.

In the case of `CS(=O)(=O)N1CCc2c(c(-c3ccc(C(F)(F)F)c(SCCN4CCc5ccccc5C4)c3)nn2CCCN2CCC(N3CCCC3=O)CC2)C1` [Example 44, 1-{1-[3-(3-{3-[2-(3,4-Dihydro-1H-isoquinolin-2-yl)-ethylsulfanyl]-4-trifluoromethyl-phenyl}-5-methanesulfonyl-4,5,6,7-tetrahydro-pyrazolo[4,3-c]pyridin-1-yl)-propyl]-piperidin-4-yl}-pyrrolidin-2-one], the IC50 came to 500 nM.

Take `CN(CCSc1cc(-c2nn(CCCN3CCC(N4CCCC4=O)CC3)c3c2CN(S(C)(=O)=O)CC3)ccc1C(F)(F)F)Cc1ccccc1` [Example 51, 1-{1-[3-(3-{3-[2-(Benzyl-methyl-amino)-ethylsulfanyl]-4-trifluoromethyl-phenyl}-5-methanesulfonyl-4,5,6,7-tetrahydro-pyrazolo[4,3-c]pyridin-1-yl)-propyl]-piperidin-4-yl}-pyrrolidin-2-one]: the IC50 turned out to be 2010 nM.
